Test results taken from US20220168427A1 (Ranok Therapeutics (Hangzhou) Co. Ltd., priority 2019, published 2022).

Legend:
[1] = molecular target: BRD4 (BD1+BD2) (Homo sapiens, UniProt O60885); assay: BRD4 Binding Homogeneous Time Resolved Fluorescence (HTRF) Assay; details: read-out: BRD4 Binding Potency, tested form: Cl
[2] = tested on: MV4-11 cells; assay: MV4-11 Cell Cytotoxicity Assay; assay type: cell-based, human; details: read-out: MV4-11 cytotoxicity; 72 hr, CCK-8; tested form: Cl

CCn1c(=O)/c(=C2\Sc3ccccc3N2C)s/c1=C\c1cccc[n+]1CCCCCCNC(=O)C[C@@H]1N=C(c2ccc(Cl)cc2)c2c(sc(C)c2C)-n2c(C)nnc21 gave an IC50 [1] of 0.1 to 1 µM and an IC50 [2] of over 1 µM.
